Assay results as given in paper PMC10485003, “Antibiotic hyper-resistance in a class I aminoacyl-tRNA synthetase with altered active site signature motif” (Nature Communications, 2023).
“And” between values parts separate entries of the source, which are not always exact repeats. Identical values can stand only once.

Legend:
mut-GVHH TtIleRS2 = target: T1, mut-GVHH TtIleRS2 (Thermus thermophilus, UniProt P56690, G56H/H54G); type: biochemical; conditions: MUT/WT TtIleRS2; Repl1-Repl3; towards Ile
T1 construct: hexa-histidine tag (pET28b(+)) (N); made in house; host or cells: E. coli Rosetta2 (DE3)
T1 sequence (P56690 1-1043 H54G/G56H): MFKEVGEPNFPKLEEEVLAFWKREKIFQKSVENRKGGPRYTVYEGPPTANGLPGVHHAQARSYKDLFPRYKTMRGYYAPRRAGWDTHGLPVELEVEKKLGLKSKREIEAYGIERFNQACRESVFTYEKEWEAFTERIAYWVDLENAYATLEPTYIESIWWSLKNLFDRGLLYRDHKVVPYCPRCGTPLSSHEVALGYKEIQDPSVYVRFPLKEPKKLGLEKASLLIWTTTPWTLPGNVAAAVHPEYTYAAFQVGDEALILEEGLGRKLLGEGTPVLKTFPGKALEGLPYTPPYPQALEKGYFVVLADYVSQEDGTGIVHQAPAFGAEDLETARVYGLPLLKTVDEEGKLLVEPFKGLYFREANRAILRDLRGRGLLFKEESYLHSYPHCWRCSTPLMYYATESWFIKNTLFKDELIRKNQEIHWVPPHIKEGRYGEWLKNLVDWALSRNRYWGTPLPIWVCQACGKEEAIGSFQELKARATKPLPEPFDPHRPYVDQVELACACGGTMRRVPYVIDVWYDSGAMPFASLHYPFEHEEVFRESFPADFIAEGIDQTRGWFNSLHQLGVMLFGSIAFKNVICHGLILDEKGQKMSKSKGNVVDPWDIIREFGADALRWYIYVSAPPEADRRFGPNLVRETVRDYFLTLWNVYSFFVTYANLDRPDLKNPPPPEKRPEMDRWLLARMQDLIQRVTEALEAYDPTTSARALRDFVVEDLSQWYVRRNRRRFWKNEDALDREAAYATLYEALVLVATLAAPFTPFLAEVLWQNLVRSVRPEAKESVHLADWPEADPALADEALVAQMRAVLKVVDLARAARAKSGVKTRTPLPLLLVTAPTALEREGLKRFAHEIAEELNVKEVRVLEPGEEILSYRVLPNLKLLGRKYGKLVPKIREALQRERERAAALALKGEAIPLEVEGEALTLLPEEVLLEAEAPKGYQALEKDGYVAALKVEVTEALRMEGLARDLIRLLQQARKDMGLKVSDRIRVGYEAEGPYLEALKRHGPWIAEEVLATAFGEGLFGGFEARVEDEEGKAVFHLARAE
Protocol: (§1) L-Ile and ATP concentrations ranged from 1/10 KM to 10 KM values. When measuring the KI towards one of the substrates, the other was held in saturation (concentrations at least 10 KM). The aliquots of the reaction mixture (1–2.5 μl) were quenched in 2 volumes of 500 mM NaOAc pH = 4.5, 0.1% SDS, and formed ^32P-ATP was separated from the remaining ^32P-PPi by thin-layer chromatography on Polygram CEL 300 PEI UV254 TLC plates (Macherey-Nagel, cat: 801063) using 750 mM KH2PO4 pH=3.5, 4 M urea buffer. Visualization and quantification of the signals was performed using a Typhoon Phosphoimager 5 (General Electric) and accompanying ImageQuant™ TL software (SV: 10.2). The kinetic constants were determined using a global fit option of the competitive inhibition model of GraphPad Prism 6 software (SV: 6.01). All experiments were performed in triplicates. The kcat was determined by dividing the maximal velocity, VM, with the used enzyme concentration. […]
(§2) variable substrate (ATP or Ile) was varied in the range of 0.1 KM to 10 KM. The other substrate (Ile or ATP) was kept in excess at 5 to 10 KM. Data were globally fitted to the competitive inhibition model using GraphPad prism 6.01 for Windows software. The values represent the average value ± SD of three independent experiments. Source data are provided as a Source Data file.
(§3) (1 picture or pasted object on this page, not shown here)

mut-HVGH DrIleRS2 = target: T2, mut-HVGH DrIleRS2 (Deinococcus radiodurans, UniProt Q9RUP8, A59H/H61G/L60V); type: biochemical; conditions: towards Ile
T2 construct: hexa-histidine tag (pET28b(+)) (N); made in house; host or cells: E. coli BL21(DE3)
T2 sequence (Q9RUP8 1-1078 A59H/L60V/H61G): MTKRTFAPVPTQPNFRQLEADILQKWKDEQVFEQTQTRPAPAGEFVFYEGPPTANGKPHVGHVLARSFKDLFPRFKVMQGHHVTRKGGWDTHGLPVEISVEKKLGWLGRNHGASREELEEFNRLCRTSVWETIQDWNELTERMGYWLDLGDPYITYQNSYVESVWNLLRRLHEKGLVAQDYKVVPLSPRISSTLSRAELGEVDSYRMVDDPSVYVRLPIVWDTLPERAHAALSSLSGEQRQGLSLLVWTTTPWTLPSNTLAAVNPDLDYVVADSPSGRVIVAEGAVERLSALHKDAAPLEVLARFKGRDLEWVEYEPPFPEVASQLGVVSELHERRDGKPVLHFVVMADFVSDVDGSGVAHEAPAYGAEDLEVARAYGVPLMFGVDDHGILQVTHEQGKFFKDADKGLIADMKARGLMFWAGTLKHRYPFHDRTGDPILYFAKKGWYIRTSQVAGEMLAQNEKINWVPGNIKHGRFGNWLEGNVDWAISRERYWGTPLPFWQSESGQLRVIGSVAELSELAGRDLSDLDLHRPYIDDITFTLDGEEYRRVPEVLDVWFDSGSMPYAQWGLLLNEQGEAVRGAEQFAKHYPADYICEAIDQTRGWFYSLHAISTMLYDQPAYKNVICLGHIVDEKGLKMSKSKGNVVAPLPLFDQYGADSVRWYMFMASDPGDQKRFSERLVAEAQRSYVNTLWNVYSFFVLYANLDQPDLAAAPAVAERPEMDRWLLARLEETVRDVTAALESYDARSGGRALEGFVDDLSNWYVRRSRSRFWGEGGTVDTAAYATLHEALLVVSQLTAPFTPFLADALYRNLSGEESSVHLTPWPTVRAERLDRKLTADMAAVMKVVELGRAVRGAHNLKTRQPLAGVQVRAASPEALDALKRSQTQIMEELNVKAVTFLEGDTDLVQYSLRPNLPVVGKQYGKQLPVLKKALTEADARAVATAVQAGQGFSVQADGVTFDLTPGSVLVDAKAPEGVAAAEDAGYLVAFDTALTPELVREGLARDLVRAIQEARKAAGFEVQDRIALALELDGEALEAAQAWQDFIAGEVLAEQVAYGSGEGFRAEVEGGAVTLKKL
Protocol: as §1, §2, §3

## C/C(=C\C(=O)OCCCCCCCCC(=O)O)C[C@@H]1OC[C@H](C[C@@H]2O[C@H]2[C@@H](C)[C@H](C)O)[C@@H](O)[C@H]1O [mupirocin]
mut-GVHH TtIleRS2
  FOLD Change of KI, single replicates: 179 and 175 and 180
mut-HVGH DrIleRS2; WT/MUT DrIleRS2, Repl1-Repl3
  FOLD Change of KI, single replicates: 832 and 931 and 707
mut-HVGH DrIleRS2; wt-ALHH to mut-HVGH DrIleRS2, activation step, average of three experiments
  Fold change (decrease) in Ki for mupirocin, mupirocin resistance: 823 fold
